Measurements from paper PMC3691235, “Discovery of a Novel Dual Fungal CYP51/Human 5-Lipoxygenase Inhibitor: Implications for Anti-Fungal Therapy” (PLoS ONE, 2013).

Target: T1, human prostate epithelial 15-lipoxygenase-2 (15-LOX-2) (Homo sapiens, UniProt O15296)
T1 construct: His6 (N); made in house
T1 sequence (O15296 1-676): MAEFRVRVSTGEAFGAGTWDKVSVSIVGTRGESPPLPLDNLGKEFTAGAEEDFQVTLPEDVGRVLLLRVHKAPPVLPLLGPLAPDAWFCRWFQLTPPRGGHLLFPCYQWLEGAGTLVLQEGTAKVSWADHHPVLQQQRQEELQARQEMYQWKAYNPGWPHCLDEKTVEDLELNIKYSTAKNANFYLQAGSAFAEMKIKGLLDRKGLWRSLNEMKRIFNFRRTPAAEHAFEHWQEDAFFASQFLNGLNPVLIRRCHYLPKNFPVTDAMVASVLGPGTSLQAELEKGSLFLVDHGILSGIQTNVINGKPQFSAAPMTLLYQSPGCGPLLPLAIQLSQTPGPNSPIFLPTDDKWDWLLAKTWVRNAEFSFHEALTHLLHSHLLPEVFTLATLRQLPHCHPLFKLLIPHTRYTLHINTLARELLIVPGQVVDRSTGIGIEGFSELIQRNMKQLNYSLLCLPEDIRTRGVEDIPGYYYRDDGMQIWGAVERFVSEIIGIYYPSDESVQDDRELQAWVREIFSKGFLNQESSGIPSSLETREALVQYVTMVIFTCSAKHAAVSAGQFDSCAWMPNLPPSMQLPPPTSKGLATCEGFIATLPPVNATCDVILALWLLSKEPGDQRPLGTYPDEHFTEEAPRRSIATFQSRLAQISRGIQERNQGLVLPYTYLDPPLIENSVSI
Experiment: Lipoxygenase UV-based inhibitor assay, 15-LOX-2
Type: biochemical
Protocol: Human leukocyte 5-lipoxygenase was expressed as a non-tagged protein and used as a crude ammonium sulfate protein fraction, as published previously.
Inhibitor potencies were evaluated through use of the standard UV-based inhibitor assay. The initial rates were determined by following the formation of the conjugated diene product at 234 nm (ε = 25,000 M^−1 cm^−1) with a Perkin-Elmer Lambda 40 UV/Vis spectrophotometer at one substrate concentration and varying inhibitor concentrations. All reactions were 2 mL in volume and constantly stirred using a magnetic stir bar at room temperature (23°C), with the enzyme specific buffer conditions outlined in Table 1. The substrate used for the various isozymes was arachidonic acid (AA) for 5-LOX, 12-LOX, and 15-LOX-2 and linoleic acid (LA) for 15-LOX-1, where concentrations were quantitatively determined by allowing the enzymatic reaction to go to completion. IC50 values were obtained by determining the initial rate at various inhibitor concentrations and plotting them against inhibitor concentration, followed by a hyperbolic saturation curve fit. The data used for the saturation curves were performed in duplicate or triplicate, depending on the quality of the data. […] Inhibitors were stored at −20°C in DMSO. […] The pH of the buffered D2O was determined as reported previously.

Q: Which IC50 does the source give for `CC(c1cc2ccccc2s1)N(O)C(N)=O` (stereo not shown) [zileuton, reference compound] here?
A: > 150 µM
